Source: PMC11310081, “Deep-learning-enabled antibiotic discovery through molecular de-extinction” (Nature Biomedical Engineering, 2024)

Tests used:
A. baumannii ATCC 19606 [1] = experiment: Cytoplasmic membrane depolarization assay (DiSC3-5); type: cell-based, Acinetobacter baumannii; details: DiSC3-5 fluorescence, peptide at its MIC, polymyxin B as positive control; three replicates
Experimental: The depolarization of the bacterial cytoplasmic membrane was determined by fluorescence measurements of the membrane potential-sensitive dye, DiSC3-5 (ref. [16]). Briefly, A. baumannii ATCC 19606 and P. aeruginosa PAO1 were grown at 37 °C until mid-log phase (OD600 = 0.5). The cells were then centrifuged using the same conditions described for the NPN uptake assays, washed twice with washing buffer containing 20 mmol l^−1 glucose and 5 mmol l^−1 HEPES (pH 7.2). The cells were diluted 1:10 (OD600 = 0.05) in a buffer containing 0.1 mol l^−1 KCl, 20 mmol l^−1 glucose and 5 mmol l^−1 HEPES (pH 7.2). About 100 μl of bacterial solution was then incubated for 15 min with 20 nmol l^−1 of DiSC3-5 until the fluorescence reached a plateau, that is, the dye was fully internalized into the bacterial membrane. Transmembrane potential changes were monitored by observing the difference in the fluorescence emission intensity of DiSC3-5 (λex = 622 nm, λem = 670 nm), after the addition of 100 μl of peptide aqueous solution at its MIC. All assays were performed in three biological replicates. The relative fluorescence values were calculated for the course of the experiment using non-linear fitting, and the untreated control (buffer + bacteria + fluorescent dye) served as baseline. […]

HEK293T cells = details: 24 h
Experimental: HEK293T cells were obtained from the American Type Culture Collection (CRL-3216). The cells were cultured in high-glucose Dulbecco’s modified Eagle’s medium supplemented with 1% penicillin and streptomycin (antibiotics) and 10% fetal bovine serum and grown at 37 °C in a humidified atmosphere containing 5% CO2.
One day before the experiment, an aliquot of 100 μl of the cells at 50,000 cells per ml was seeded into each well of the cell-treated 96-well plates used in the experiment (that is, 5,000 cells per well). […] After the incubation period, we performed the 3-(4,5-dimethylthiazol-2-yl)-2,5-diphenyltetrazolium bromide tetrazolium reduction assay (MTT assay)[53]. The MTT reagent was dissolved at 0.5 mg ml^−1 in medium without phenol red and was used to replace cell culture supernatants containing the peptides (100 μl per well), and the samples were incubated for 4 h at 37 °C in a humidified atmosphere containing 5% CO2 yielding the insoluble formazan salt. The resulting salts were then resuspended in hydrochloric acid (0.04 mol l^−1) in anhydrous isopropanol and quantified by spectrophotometric measurements of absorbance at 570 nm. All assays were done as three biological replicates.
Unless otherwise stated, all assays were performed in three independent biological replicates as indicated in each figure legend and Methods sections. The cytotoxic activities values were estimated using non-linear regression based on the range of concentrations screened and were shown as the values that cause lysis of 50% of the cells in the experiment. Two technical replicates were performed in the cytotoxicity assays within each of the three biological replicates.

A. baumannii ATCC 19606 [2] = type: cell-based, Acinetobacter baumannii; details: ATCC 19606, 20 h
Excerpt: (§1) The following Gram-negative bacteria were used in our study: A. baumannii ATCC 19606, E. coli ATCC 11775, E. coli AIC221 (E. coli MG1655 phnE_2::FRT), E. coli AIC222 (E. coli MG1655 pmrA53 phnE_2::FRT (colistin resistant)), K. pneumoniae ATCC 13883, P. aeruginosa PAO1 and P. aeruginosa PA14. The following Gram-positive bacteria were also used in our study: S. aureus ATCC 12600, S. aureus ATCC BAA-1556 (methicillin-resistant strain), E. faecalis ATCC 700802 (vancomycin-resistant strain) and E. faecium ATCC 700221 (vancomycin-resistant strain). Bacteria were grown from frozen stocks and plated on Luria–Bertani (LB) or Pseudomonas isolation agar plates (P. aeruginosa strains) and incubated overnight at 37 °C. After the incubation period, a single colony was transferred to 5 ml of LB medium, and cultures were incubated overnight (16 h) at 37 °C. The following day, an inoculum was prepared by diluting the overnight cultures 1:100 in 5 ml of the respective media and incubating them at 37 °C until bacteria reached logarithmic phase (OD600 = 0.3–0.5).
(§2) The in vitro antimicrobial activity of the peptides was assessed by using the broth microdilution assay. […] Aqueous solutions of the peptides were added to the plate at concentrations ranging from 1 to 64 μmol l^−1. […] The optical density of the plates was measured at 600 nm using a spectrophotometer. All assays were done as three biological replicates.

[3] = system: 11 clinically relevant bacterial pathogens; type: cell-based; details: Supplementary Dataset 2; against the 11 pathogens tested
Excerpt: as §1, §2

K. pneumoniae ATCC 13883 = type: cell-based, Klebsiella pneumoniae; details: ATCC 13883, 20 h
Excerpt: as §1
as §2, with “All assays were done as three biological replicates.” left out

Row | SMILES | Cytoplasmic membrane depolarization, in words (A. baumannii ATCC 19606 [1]) | CC50 (HEK293T cells) [µM] | Minimal inhibitory concentration, A. baumannii ATCC19606 (A. baumannii ATCC 19606 [2]) [µM] | Active or Inactive [3] | Minimal inhibitory concentration, K. pneumoniae ATCC133883 (K. pneumoniae ATCC 13883) [µM] | TI (therapeutic index) (HEK293T cells)
1 | CC[C@H](C)[C@H](NC(=O)[C@@H](NC(=O)[C@H](CCCCN)NC(=O)[C@H](CCCCN)NC(=O)[C@H](CCCCN)NC(=O)[C@H](CCCCN)NC(=O)[C@H](CC(C)C)NC(=O)CNC(=O)[C@H](CCC(N)=O)NC(=O)[C@@H](NC(=O)[C@H](Cc1ccc(O)cc1)NC(=O)[C@H](CCCNC(=N)N)NC(=O)[C@@H](NC(=O)[C@H](CC(C)C)NC(=O)[C@H](CC(N)=O)NC(=O)[C@H](CCCNC(=N)N)NC(=O)[C@H](C)NC(=O)[C@H](CCSC)NC(=O)[C@@H](N)CCCNC(=N)N)C(C)C)C(C)C)C(C)C)C(=O)O [Hydrodamin-2] | most potent depolarization effects | > 128 | 16 (≈ 36.8 µg/mL) | Active |  | 
2 | CC[C@H](C)[C@H](NC(=O)CNC(=O)[C@@H](NC(=O)[C@@H]1CCCN1C(=O)[C@@H](NC(=O)[C@@H](NC(=O)[C@@H](NC(=O)[C@@H](NC(=O)[C@H](CCCCN)NC(=O)[C@H](CCCCN)NC(=O)[C@H](CCCCN)NC(=O)[C@H](CCCCN)NC(=O)[C@H](CC(C)C)NC(=O)CNC(=O)[C@H](CCC(N)=O)NC(=O)[C@@H](NC(=O)[C@H](Cc1ccc(O)cc1)NC(=O)[C@H](CCCNC(=N)N)NC(=O)[C@@H](NC(=O)[C@H](CC(C)C)NC(=O)[C@H](CC(N)=O)NC(=O)[C@@H](N)CCCNC(=N)N)C(C)C)C(C)C)C(C)C)[C@@H](C)CC)C(C)C)[C@@H](C)CC)C(C)C)C(=O)NCC(=O)N1CCC[C@H]1C(=O)N[C@@H](Cc1c[nH]cn1)C(=O)N[C@@H](C)C(=O)N[C@@H](CC(N)=O)C(=O)N[C@H](C(=O)N[C@@H](CCCCN)C(=O)O)[C@@H](C)CC [Hydrodamin-3] |  | > 128 | 16 (≈ 51.8 µg/mL) | Active |  | 
3 | CC(C)C[C@H](NC(=O)CNC(=O)[C@H](CCCNC(=N)N)NC(=O)[C@H](CCCCN)NC(=O)[C@@H](N)CCCNC(=N)N)C(=O)N[C@@H](CCCCN)C(=O)N[C@@H](CC(C)C)C(=O)N[C@@H](C)C(=O)N[C@H](C(=O)N[C@@H](C)C(=O)N[C@@H](CC(C)C)C(=O)N[C@@H](CO)C(=O)N[C@@H](CC(C)C)C(=O)N[C@@H](CC(N)=O)C(=O)N[C@@H](CC(N)=O)C(=O)N[C@@H](CCCCN)C(=O)N[C@@H](Cc1ccccc1)C(=O)N[C@H](C(=O)O)C(C)C)[C@@H](C)O [Mylodonin-4] | most potent depolarization effects | > 128 | 64 (≈ 130 µg/mL) | Active |  | 
4 | CC[C@H](C)[C@H](N)C(=O)N[C@@H](Cc1ccccc1)C(=O)N[C@@H](CO)C(=O)N[C@@H](CC(C)C)C(=O)N[C@@H](Cc1c[nH]cn1)C(=O)N[C@@H](CC(C)C)C(=O)N[C@@H](C)C(=O)NCC(=O)N[C@H](C(=O)N[C@@H](CO)C(=O)N[C@@H](CO)C(=O)N[C@H](C(=O)N[C@@H](CC(C)C)C(=O)O)[C@@H](C)CC)[C@@H](C)CC [Ursusin-1] |  | > 128 |  | Active | 64 (≈ 87.7 µg/mL) | > 2

Converted amounts (≈) assume the structure as drawn.
